Laboratory results from ChEMBL document CHEMBL1125301, “1-(2-Aminoethyl)-3-methyl-8,9-dihydropyrano[3,2-e]indole: a rotationally restricted phenolic analog of the neurotransmitter serotonin and agonist selective for serotonin (5-HT2-type) receptors” (J Med Chem, 1992).

Protein sequences, listed by entry. Tags and fused reporters are not part of them. Lines headed by an entry give the natural chain unless they say otherwise; changes in a name come on top.
UniProt P30994: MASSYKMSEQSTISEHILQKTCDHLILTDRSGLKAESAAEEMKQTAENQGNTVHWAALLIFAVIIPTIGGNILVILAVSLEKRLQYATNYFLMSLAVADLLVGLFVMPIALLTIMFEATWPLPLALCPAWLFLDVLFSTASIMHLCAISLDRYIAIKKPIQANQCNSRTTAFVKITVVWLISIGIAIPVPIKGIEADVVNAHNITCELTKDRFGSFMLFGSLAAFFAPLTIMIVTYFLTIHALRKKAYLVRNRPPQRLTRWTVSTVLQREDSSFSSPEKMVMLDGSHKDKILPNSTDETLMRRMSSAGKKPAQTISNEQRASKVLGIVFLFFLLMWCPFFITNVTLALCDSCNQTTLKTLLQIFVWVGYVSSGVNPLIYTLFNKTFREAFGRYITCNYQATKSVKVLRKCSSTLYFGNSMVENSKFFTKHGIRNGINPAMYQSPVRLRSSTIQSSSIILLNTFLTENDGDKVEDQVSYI
UniProt P08909: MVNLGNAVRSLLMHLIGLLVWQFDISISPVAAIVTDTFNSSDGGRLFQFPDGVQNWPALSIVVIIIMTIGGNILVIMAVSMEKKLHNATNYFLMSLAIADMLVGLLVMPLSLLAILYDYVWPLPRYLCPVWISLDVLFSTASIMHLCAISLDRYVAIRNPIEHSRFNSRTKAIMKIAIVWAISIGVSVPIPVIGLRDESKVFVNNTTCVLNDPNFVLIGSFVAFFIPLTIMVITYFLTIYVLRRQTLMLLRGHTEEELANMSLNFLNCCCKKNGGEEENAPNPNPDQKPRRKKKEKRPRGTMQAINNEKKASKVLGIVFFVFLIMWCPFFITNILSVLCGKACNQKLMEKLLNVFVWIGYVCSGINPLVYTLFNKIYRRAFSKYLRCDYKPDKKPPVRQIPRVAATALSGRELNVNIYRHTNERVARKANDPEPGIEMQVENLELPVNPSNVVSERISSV
UniProt P14842: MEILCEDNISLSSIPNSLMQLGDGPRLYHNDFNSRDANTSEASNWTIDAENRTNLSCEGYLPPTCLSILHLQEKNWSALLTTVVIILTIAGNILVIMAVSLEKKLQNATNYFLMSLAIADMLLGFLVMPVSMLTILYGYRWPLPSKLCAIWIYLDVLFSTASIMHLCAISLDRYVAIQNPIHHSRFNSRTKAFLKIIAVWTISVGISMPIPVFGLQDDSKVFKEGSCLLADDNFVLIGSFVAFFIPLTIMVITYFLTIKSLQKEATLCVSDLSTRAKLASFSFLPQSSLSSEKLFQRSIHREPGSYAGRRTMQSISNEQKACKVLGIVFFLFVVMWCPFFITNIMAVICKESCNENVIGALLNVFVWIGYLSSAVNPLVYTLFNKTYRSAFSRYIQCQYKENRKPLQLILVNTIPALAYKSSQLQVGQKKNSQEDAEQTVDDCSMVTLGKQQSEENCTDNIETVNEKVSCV

Tests used:
[1] = molecular target: T1, Serotonin 2 (5-HT2) receptor (Rattus norvegicus, UniProt P30994+P08909+P14842); experiment: Compound was evaluated for binding affinity towards 5-hydroxytryptamine 2 receptor in rat anterior cortex using [125I]DOI as radioligand
How it was run: (§1)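 Competition binding against the named radioligand on the native tissue membranes shown, radioligand at roughly its K_D for the binding system; procedures otherwise follow earlier published methods.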

[2] = molecular target: T1, Serotonin 2 (5-HT2) receptor; experiment: Compound was evaluated for binding affinity towards 5-hydroxytryptamine 2 receptor in rat anterior cortex using [3H]ketanserin as radioligand; how it was run: as §1

## COc1ccc2[nH]cc(CCN(C)C)c2c1 [MEBUFOTENIN]
[1]
  IC50: 130 nM
[2]
  IC50: 1800 nM
